# Reference: PMC10377281, “Purification and Immobilization of Superoxide Dismutase Obtained from Saccharomyces cerevisiae TBRC657 on Bacterial Cellulose and Its Protective Effect against Oxidative Damage in Fibroblasts” (2023)
# Sequences of proteins named here, by UniProt entry; tags and fusion partners are left off. Residues count along the entry.
# UniProt P00447, 27-233 limits assumed: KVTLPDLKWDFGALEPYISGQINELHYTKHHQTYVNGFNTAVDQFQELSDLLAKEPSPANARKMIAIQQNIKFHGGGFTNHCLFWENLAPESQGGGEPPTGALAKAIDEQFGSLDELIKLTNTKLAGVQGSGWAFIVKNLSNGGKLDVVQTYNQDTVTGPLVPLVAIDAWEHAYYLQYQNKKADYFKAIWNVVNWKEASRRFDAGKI
# Target: purified SOD (Mn-SOD) (Saccharomyces cerevisiae, UniProt P00447)
# Test: residual SOD activity, WST-1 formazan kit
# Settings: 1000 µM; preincubated 1.0 mM, 4 °C, 10 min; assay pH 7.0, 35 °C; value is remaining activity (control 100), not per cent inhibition
compound,measurement,value
[N-]=[N+]=N,Relative Activity (%),67.06 ± 2.23%
